Experimental data from the OPERA property sets (Mansouri et al. 2018).

CN(C)P(=O)(F)N(C)C
log10 OH rate constant (cm³/molecule/s): -10.2
